From article PMC6891286, “Towards the Development of an In vivo Chemical Probe for Cyclin G Associated Kinase (GAK)” (Molecules, 2019)

Biological target: T1, GAK (Homo sapiens, UniProt O14976)
T1 sequence (O14976 1-1311): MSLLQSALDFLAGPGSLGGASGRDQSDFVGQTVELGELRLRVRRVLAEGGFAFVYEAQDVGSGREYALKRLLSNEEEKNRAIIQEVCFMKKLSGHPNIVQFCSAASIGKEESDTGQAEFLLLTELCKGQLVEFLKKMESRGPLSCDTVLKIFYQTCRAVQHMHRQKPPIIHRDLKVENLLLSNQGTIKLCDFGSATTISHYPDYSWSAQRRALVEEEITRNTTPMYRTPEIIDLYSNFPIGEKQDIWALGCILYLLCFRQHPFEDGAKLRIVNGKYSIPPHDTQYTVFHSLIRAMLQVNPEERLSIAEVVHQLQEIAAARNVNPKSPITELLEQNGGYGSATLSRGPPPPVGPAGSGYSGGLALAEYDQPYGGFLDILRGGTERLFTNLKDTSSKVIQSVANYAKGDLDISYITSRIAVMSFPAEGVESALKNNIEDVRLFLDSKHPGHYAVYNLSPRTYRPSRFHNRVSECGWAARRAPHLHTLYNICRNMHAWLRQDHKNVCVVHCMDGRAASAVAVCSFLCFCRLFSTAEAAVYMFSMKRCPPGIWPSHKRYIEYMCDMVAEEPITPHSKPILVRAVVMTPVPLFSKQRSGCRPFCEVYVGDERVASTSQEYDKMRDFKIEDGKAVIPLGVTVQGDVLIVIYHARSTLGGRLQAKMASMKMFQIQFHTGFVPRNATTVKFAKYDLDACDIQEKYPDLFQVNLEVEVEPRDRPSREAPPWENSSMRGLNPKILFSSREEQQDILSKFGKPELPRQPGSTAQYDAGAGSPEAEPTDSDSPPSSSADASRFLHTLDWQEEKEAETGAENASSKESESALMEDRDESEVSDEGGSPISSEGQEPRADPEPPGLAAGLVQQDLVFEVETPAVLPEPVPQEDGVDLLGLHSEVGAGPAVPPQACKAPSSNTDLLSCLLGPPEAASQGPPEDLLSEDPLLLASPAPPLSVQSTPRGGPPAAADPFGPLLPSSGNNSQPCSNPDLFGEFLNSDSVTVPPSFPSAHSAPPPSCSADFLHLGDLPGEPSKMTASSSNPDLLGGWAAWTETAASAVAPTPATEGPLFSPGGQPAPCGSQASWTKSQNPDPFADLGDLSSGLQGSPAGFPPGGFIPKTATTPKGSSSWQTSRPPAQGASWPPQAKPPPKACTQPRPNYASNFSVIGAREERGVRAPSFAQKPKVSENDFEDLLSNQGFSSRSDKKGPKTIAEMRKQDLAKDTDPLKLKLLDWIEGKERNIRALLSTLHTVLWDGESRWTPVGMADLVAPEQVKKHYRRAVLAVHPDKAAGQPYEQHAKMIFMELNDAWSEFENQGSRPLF
Experiment: TR-FRET ligand-binding displacement assay
Details: NAK family FRET screening

COc1cc(Nc2ccnc3ccc(Br)cc23)cc(OC)c1OC [Compound 1]
pKi: 8.51

pKi: −log10 of the molar value.
